# Experimental data from patent US4609725A, “Cardiac atrial peptides” (Merck & Co., Inc., priority 1984, dated 1986).
# Experiments:
# [1] = tested on: serotonin contracted rabbit aortae; format: cell-based
# Source text: (§1) Under the conditions described above, conversion of non-iodinated ANF peptide fragment to the iodinated peptide was approximately 48%, based on the absorbance of the respective HPLC fractions and by amino acid analysis.
# [2] = tested on: serotonin contracted rat aortae; format: cell-based
# Source text: as §1
smiles,measurement,setting,value
"CC[C@H](C)[C@@H]1NC(=O)[C@H](CCCNC(=N)N)NC(=O)[C@H](CC(=O)O)NC(=O)[C@H]([C@@H](C)CC)NC(=O)[C@H](CCCNC(=N)N)NC(=O)CNC(=O)CNC(=O)[C@H](Cc2ccccc2)NC(=O)[C@@H](NC(=O)[C@H](CO)NC(=O)[C@H](CO)NC(=O)[C@H](CCCNC(=N)N)NC(=O)[C@@H](N)CCCNC(=N)N)CSSC[C@@H](C(=O)N[C@@H](CC(N)=O)C(=O)N[C@@H](CO)C(=O)N[C@@H](Cc2ccccc2)C(=O)N[C@@H](CCCNC(=N)N)C(=O)N[C@@H](Cc2ccc(O)cc2)C(=O)O)NC(=O)CNC(=O)[C@H](CC(C)C)NC(=O)CNC(=O)[C@H](CO)NC(=O)[C@H](CCC(N)=O)NC(=O)[C@H](C)NC(=O)CNC1=O [non-iodinated ANF peptide fragment, reference compound]",IC50,[1],0.55 nM
same,IC50,[2],0.85 nM
